# Ab-14 heavy chain CDR variants: yeast mating affinities

Values reported by Engelhart et al. 2022, doi:10.1038/s41597-022-01779-4 (FLAb copy).

Target peptide (SARS-CoV-2 spike, HR2 region): PDVDLGDISGINAS

The variants keep the light chain, the linker and the frameworks of Ab-14 (scFv order VH, the linker GGGGSGGGGSGGGGS, VL).
VH: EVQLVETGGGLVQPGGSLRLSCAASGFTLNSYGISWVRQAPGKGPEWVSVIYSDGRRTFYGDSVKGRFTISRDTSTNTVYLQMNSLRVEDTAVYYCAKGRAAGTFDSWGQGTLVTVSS
VL: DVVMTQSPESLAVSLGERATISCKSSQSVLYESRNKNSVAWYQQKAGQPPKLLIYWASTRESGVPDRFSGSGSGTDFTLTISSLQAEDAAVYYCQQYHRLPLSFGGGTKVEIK

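Library AAYL49 holds single substitutions and randomly drawn double and triple substitutions in the CDRs. Affinity was read by AlphaSeq, a pooled yeast mating assay with surface-displayed partners. After mating in shaken culture at 30 °C for 16 h, diploids were selected and their barcode pairs sequenced. Read counts were normalised to the haploid input and turned into Kd by a linear fit to BCL2-family pairs of known affinity, for each replicate. Mating was done three times.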

Each variant's VH is given in full. This list gathers variants with a substitution at F105 (VH, numbered from residue 1). Kd is apparent (estimated from mating counts) and averaged on the log scale over replicates with a signal. Smaller is tighter. A pair that was not seen in any replicate is written "no signal"; this usually means weak binding, but a binder can also be missed. Parent in this assay: reference entry 4.4 nM, copy in this library 13 µM (one replicate of three).

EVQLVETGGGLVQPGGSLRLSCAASGFTLNSYGISWVRQAPGKGPEWVSVIYSDGTRTFYGDSVKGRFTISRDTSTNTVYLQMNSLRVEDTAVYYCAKGRASGTEDSWGQGTLVTVSS: no signal (0 of 3 replicates).
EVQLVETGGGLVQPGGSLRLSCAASGFTLNSYGISWVRQAPGKGPEWVSVIYSDGRFTFYGDSVVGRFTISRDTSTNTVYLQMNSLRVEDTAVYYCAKGRAAGTQDSWGQGTLVTVSS: 130 µM (1 of 3 replicates).
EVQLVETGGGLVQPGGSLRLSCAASGFTLNSYGISWVRQAPGKGPEWVSVIYNDGRYTFYGDSVKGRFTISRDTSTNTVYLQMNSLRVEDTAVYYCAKGRAAGTNDSWGQGTLVTVSS: 45 µM (3 of 3 replicates).
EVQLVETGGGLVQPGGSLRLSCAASGFTLNSYGISWVRQAPGKGPEWVSQIYSDGRRTFYGDSHKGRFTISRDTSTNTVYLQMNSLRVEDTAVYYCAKGRAAGTDDSWGQGTLVTVSS: 3.8 µM (2 of 3 replicates).
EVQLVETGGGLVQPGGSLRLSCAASGFQLNSYGISWVRQAPGKGPEWVSVIYSDGRRDFYGDSVKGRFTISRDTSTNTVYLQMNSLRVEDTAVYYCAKGRAAGTEDSWGQGTLVTVSS: no signal (0 of 3 replicates).
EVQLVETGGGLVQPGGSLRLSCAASGFTLNSYHISWVRQAPGKGPEWVSVIYSDGRRHFYGDSVKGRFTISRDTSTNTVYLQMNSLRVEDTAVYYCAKGRAAGTYDSWGQGTLVTVSS: no signal (0 of 3 replicates).
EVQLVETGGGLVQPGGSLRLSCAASGFMLNSYGISWVRQAPGKGPEWVSVIYSDGRRTMYGDSVKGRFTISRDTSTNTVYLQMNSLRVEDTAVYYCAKGRAAGTIDSWGQGTLVTVSS: 18 nM (3 of 3 replicates).
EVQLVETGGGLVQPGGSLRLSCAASCFTLNSYGISWVRQAPGKGPEWVSVKYSDGRRTFYGDSVKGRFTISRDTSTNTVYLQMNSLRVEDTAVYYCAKGRAAGTYDSWGQGTLVTVSS: no signal (0 of 3 replicates).
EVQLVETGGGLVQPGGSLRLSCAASGITLNSYGISWVRQAPGKGPEWVSVIYSDGRRTFYGDSDKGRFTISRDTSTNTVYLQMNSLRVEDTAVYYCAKGRAAGTNDSWGQGTLVTVSS: 66 µM (1 of 3 replicates).
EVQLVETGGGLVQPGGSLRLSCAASEFTLNSYGISWVRQAPGKGPEWVSVIYSDGRRTFYKDSVKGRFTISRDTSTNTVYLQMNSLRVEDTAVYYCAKGRAAGTWDSWGQGTLVTVSS: no signal (0 of 3 replicates).
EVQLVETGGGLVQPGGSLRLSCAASGFTLNSYGISWVRQAPGKGPEWVSVIYSDGRRTFYGGSVVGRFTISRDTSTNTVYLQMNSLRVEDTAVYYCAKGRAAGTIDSWGQGTLVTVSS: no signal (0 of 3 replicates).
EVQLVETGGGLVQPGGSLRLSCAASGFTLLSYGISWVRQAPGKGPEWVSVIYSMGRRTFYGDSVKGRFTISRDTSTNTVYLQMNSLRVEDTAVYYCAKGRAAGTEDSWGQGTLVTVSS: 21 µM (1 of 3 replicates).
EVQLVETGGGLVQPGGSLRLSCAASGFTLNSYGISWVRQAPGKGPEWVSVIYSDGRRTFYGCSVKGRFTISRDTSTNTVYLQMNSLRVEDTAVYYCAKGEAAGTIDSWGQGTLVTVSS: 130 nM (1 of 3 replicates).
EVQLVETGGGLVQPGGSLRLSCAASGFTLNSNGISWVRQAPGKGPEWVSVIYSDGRRTFYGDSVKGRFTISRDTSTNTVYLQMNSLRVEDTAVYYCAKGRAAGTSDSWGQGTLVTVSS: 740 nM (2 of 3 replicates).
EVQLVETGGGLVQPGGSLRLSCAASGFTLNSYGISWVRQAPGKGPEWVSVEYSDGRRTFYGDSVKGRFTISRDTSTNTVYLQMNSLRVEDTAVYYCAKGRAAGTGDSWGQGTLVTVSS: 9.7 µM (3 of 3 replicates).
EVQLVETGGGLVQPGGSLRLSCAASGFTLNSEGISWVRQAPGKGPEWVSVIYSDGRRTFYGWSVKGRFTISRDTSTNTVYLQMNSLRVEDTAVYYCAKGRAAGTKDSWGQGTLVTVSS: 9.0 µM (2 of 3 replicates).
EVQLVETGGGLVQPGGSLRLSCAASGFTLDSYGISWVRQAPGKGPEWVSVIYSDGRRTFYGFSVKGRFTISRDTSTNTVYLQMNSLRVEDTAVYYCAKGRAAGTTDSWGQGTLVTVSS: 170 µM (1 of 3 replicates).
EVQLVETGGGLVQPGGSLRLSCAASGFTKNIYGISWVRQAPGKGPEWVSVIYSDGRRTFYGDSVKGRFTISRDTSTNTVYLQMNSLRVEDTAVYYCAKGRAAGTLDSWGQGTLVTVSS: 580 nM (3 of 3 replicates).
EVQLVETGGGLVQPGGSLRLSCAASWSTLNSYGISWVRQAPGKGPEWVSVIYSDGRRTFYGDSVKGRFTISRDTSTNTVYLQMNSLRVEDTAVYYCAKGRAAGTYDSWGQGTLVTVSS: 35 nM (3 of 3 replicates).
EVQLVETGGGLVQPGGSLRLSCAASGFTDNSYGISWVRQAPGKGPEWVSSIYSDGRRTFYGDSVKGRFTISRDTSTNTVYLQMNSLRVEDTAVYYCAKGRAAGTKDSWGQGTLVTVSS: 440 µM (1 of 3 replicates).
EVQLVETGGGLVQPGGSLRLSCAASGFTLNSYGIKWVRQAPGKGPEWVSVIYSDGRRTVYGDSVKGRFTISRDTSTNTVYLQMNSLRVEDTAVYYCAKGRAAGTHDSWGQGTLVTVSS: 280 µM (1 of 3 replicates).
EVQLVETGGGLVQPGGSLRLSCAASMFTLNSYGNSWVRQAPGKGPEWVSVIYSDGRRTFYGDSVKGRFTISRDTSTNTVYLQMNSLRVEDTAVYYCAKGRAAGTYDSWGQGTLVTVSS: 9.5 µM (3 of 3 replicates).
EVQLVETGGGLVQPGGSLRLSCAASGFTLNSYGISWVRQAPGKGPEWVSVIYSDGRRTFYHDSCKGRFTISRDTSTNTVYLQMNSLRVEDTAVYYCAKGRAAGTNDSWGQGTLVTVSS: 71 nM (3 of 3 replicates).
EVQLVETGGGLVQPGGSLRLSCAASGFTLNSYGISWVRQAPGKGPEWVSVIYSDGRRTFYGDSKKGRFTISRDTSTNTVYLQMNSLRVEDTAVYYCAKGRAAGTCDSWGQGTLVTVSS: no signal (0 of 3 replicates).
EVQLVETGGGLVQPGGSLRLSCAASGFTLNYYGISWVRQAPGKGPEWVSVIYSDGRRKFYGDSVKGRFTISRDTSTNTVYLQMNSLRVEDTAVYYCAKGRAAGTIDSWGQGTLVTVSS: 120 nM (3 of 3 replicates).

Repeated from above, the 2 best binders with a signal in all replicates:

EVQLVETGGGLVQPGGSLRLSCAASGFMLNSYGISWVRQAPGKGPEWVSVIYSDGRRTMYGDSVKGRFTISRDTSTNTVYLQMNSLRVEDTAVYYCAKGRAAGTIDSWGQGTLVTVSS: 18 nM (3 of 3 replicates).
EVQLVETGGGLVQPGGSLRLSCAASWSTLNSYGISWVRQAPGKGPEWVSVIYSDGRRTFYGDSVKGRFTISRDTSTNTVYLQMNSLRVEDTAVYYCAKGRAAGTYDSWGQGTLVTVSS: 35 nM (3 of 3 replicates).

As a blank, each scFv also met three strains without target: over library AAYL49, 15% of these pairings were detected, typically at 11 µM and seldom below 680 nM.